AlphaSeq binding of Ab-14 heavy chain variants to a spike HR2 peptide

The target is the same throughout: PDVDLGDISGINAS, from the HR2 region of SARS-CoV-2 spike.

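Phage display of a naive human antibody library on the peptide gave the parent. The library (AAYL49) carries one to three amino acid substitutions per variant, with no insertions or deletions. In AlphaSeq, yeast of one mating type display the scFv and yeast of the other type display the target. Mating (16 h, 30 °C) was followed by selection of diploids and sequencing of their barcodes. The ratio of observed to expected reads was calibrated, replicate by replicate, on BCL2-family standards whose Kd was known from biolayer interferometry. Each pool was mated in three replicate cultures.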

Ab-14 is the parent antibody, in scFv form: VH, then three GGGGS repeats, then VL. The light chain is unchanged in all variants.
VH: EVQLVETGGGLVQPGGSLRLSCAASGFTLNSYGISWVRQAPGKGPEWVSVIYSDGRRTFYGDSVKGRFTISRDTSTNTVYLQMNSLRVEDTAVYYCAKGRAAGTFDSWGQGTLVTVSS
VL: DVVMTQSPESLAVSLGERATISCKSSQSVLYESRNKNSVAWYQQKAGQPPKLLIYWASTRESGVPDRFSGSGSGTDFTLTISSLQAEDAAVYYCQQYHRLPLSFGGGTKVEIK

Variants are written as CDR1, CDR2 and CDR3 of the heavy chain (limits as in the source). Parent: GFTLNSYGIS, VIYSDGRRTFYGDSVK, GRAAGTFDS.
Values are log10 of the apparent Kd in nM; lower means stronger binding.
A mean of the replicates is given; it leaves out those without a signal.
A pair that was not seen in that replicate is written "nd"; this usually means weak binding, but a binder can also be missed.
As a blank, each scFv also met three strains without target: over library AAYL49, 15% of these pairings were detected, typically at 4.06 and seldom below 2.83. For each scFv, signals with the empty controls are counted beside the result, with their mean in brackets.

CDR-H1,CDR-H2,CDR-H3,log10 Kd (nM) by replicate,"log10 Kd (nM), mean",empty controls
GFTLNSYGIS,VMYSDGRRTFYGWSMK,GRAAGTFDS,nd / nd / 4.71,4.71,1 of 9 (3.19)
GFHLNSYGIS,VDYPDGRRTFYGDSVK,GRAAGTFDS,nd / nd / nd,nd,2 of 9 (3.65)
GFTLNLYGIS,VIYSDGRRTFYGASVK,GRAAGTTDS,nd / nd / nd,nd,0 of 9
GFTLNICGIS,VIYSDGGRTFYGDSVK,GRAAGTFDS,nd / 3.65 / nd,3.65,1 of 9 (4.63)
GFTLNSYGIS,VIYSDGRRDFLGDSVK,GRRAGTFDS,nd / 3.39 / 4.67,4.03,2 of 9 (3.57)
GFTLNSYGIS,VIYSMGRHTFRGDSVK,GRAAGTFDS,nd / nd / nd,nd,0 of 9
DFTLNSYGIS,VIYSDGRRAKYGDSVK,GRAAGTFDS,nd / nd / 3.80,3.80,2 of 9 (3.06)
GPTLNSYGIS,VIYSDGRRLFYGDSVK,GRGAGTFDS,nd / nd / nd,nd,0 of 9
GYTLNSYGIS,VIYSIGRRTFVGDSVK,GRAAGTFDS,nd / nd / nd,nd,0 of 9
GFTLNSYGIS,VIQSDGRRTFYGDSVK,GRALGTFDS,nd / nd / nd,nd,2 of 9 (5.35)
GFTCNSYGIS,VIYSMGRRTFYGDSVK,GRAAGTFDS,nd / nd / nd,nd,2 of 9 (4.83)
GFDLNSYGIS,VIGDDGRRTFYGDSVK,GRAAGTFDS,3.91 / 3.49 / nd,3.70,3 of 9 (4.57)
GFTLNSYCIS,VIYSDGRRTFYGDSVK,GRADGTFDS,nd / nd / nd,nd,2 of 9 (4.76)
GFTLNSYGIW,VIYSDGRRTFYMDSVK,GRAAGTFDS,nd / nd / nd,nd,0 of 9
GFPLNSYPIS,VIYSDGRRTFYGDSVV,GRAAGTFDS,3.18 / nd / nd,3.18,2 of 9 (4.42)
GFTLNSYGIA,VIYSDGRRTFYGDSVK,GRAYGTCDS,4.97 / nd / nd,4.97,1 of 9 (4.20)
GFTLNSYGIS,VIYSDGRRTFYGDSVK,GRAAWTFQS,nd / nd / nd,nd,2 of 9 (3.70)
GFTLNSYGIS,VIYSDGRRTFYQDSVK,GGAAGTFDW,0.53 / 0.75 / 0.65,0.64,0 of 9
MFTLNSYGIS,VIYSDGRRTFYADSVL,GRAAGTFDS,1.59 / 1.94 / 2.63,2.05,2 of 9 (4.61)
GFTLNSYGIS,VIWSEGRRTFYGDSVK,GRAAGTFDS,nd / nd / nd,nd,2 of 9 (4.16)
GFTLNSYGIS,VIYSDGRRTFYGDSVQ,GRKAGTFDS,2.83 / 2.42 / 3.32,2.86,0 of 9
GFTLNSYGIS,VIYSDGRRTHYGMSVK,GQAAGTFDS,2.61 / 2.70 / 3.05,2.79,0 of 9
GFTLNSYGIS,VIYSDGRITFYGDSVK,GRCAGTFDS,5.29 / nd / 4.30,4.79,6 of 9 (4.39)
GFTLNLYGIS,VIYSDGRRTFYGSSCK,GRAAGTFDS,4.58 / 3.84 / nd,4.21,1 of 9 (4.35)
GFTLNSYGIS,VIYSDGRRTFRGDKVK,GRAACTFDS,nd / nd / nd,nd,0 of 9
GFTLNSYGIS,SIYSDGRFTFYVDSVK,GRAAGTFDS,nd / 3.52 / 5.58,4.55,1 of 9 (3.71)
GFTLNSYGIA,VIYSDGRRTFYGDDVK,GRAAGTEDS,4.76 / nd / nd,4.76,2 of 9 (4.55)
GFTLNSAGIS,VIYSLGRRTFEGDSVK,GRAAGTFDS,nd / 3.54 / 5.31,4.43,3 of 9 (4.86)
GFTLNSYGIS,YIYSDGYRTFYGDSVK,GKAAGTFDS,4.68 / 4.24 / 4.75,4.56,3 of 9 (4.14)
GFIMNSYGIS,VIYSDGRRTFYGDTVK,GRAAGTFDS,2.11 / 2.35 / 3.14,2.53,1 of 9 (4.72)

Repeated from above, the 4 best binders with a signal in all replicates:

CDR-H1	CDR-H2	CDR-H3	log10 Kd (nM) by replicate	log10 Kd (nM), mean	empty controls
GFTLNSYGIS	VIYSDGRRTFYQDSVK	GGAAGTFDW	0.53 / 0.75 / 0.65	0.64	0 of 9
MFTLNSYGIS	VIYSDGRRTFYADSVL	GRAAGTFDS	1.59 / 1.94 / 2.63	2.05	2 of 9 (4.61)
GFIMNSYGIS	VIYSDGRRTFYGDTVK	GRAAGTFDS	2.11 / 2.35 / 3.14	2.53	1 of 9 (4.72)
GFTLNSYGIS	VIYSDGRRTHYGMSVK	GQAAGTFDS	2.61 / 2.70 / 3.05	2.79	0 of 9

For reference, the parent read 0.65 as the reference entry and 4.11 (one replicate of three) as a member of this library.

Source: Engelhart et al. 2022 (doi:10.1038/s41597-022-01779-4), MIT Lincoln Laboratory and A-Alpha Bio; data file from the FLAb repository.